We go through 2 molecules from article PMC3131678, “In vitro inhibition of porcine cytochrome P450 by 17β -estradiol and 17α-estradiol” (Interdisciplinary Toxicology, 2011).

By UniProt entry, the sequences of proteins in these tests, tags left out. Where a name states a change or a piece, a line headed by the entry shows the natural chain unless it says otherwise. Residues count along the entry.
UniProt F1SJ26, 1-516: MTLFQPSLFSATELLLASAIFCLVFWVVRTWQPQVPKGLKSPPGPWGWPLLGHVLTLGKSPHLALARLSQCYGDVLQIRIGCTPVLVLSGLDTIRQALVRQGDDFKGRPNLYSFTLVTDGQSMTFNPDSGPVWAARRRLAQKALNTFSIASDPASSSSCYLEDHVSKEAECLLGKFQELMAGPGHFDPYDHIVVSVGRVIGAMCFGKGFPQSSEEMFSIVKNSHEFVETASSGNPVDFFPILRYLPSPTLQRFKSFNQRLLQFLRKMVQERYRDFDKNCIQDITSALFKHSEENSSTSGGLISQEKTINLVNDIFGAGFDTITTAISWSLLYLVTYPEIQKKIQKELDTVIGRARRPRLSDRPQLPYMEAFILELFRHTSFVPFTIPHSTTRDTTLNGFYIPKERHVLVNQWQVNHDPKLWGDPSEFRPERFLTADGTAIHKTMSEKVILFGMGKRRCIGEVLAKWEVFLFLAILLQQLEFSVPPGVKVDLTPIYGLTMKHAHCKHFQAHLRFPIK
UniProt P79383: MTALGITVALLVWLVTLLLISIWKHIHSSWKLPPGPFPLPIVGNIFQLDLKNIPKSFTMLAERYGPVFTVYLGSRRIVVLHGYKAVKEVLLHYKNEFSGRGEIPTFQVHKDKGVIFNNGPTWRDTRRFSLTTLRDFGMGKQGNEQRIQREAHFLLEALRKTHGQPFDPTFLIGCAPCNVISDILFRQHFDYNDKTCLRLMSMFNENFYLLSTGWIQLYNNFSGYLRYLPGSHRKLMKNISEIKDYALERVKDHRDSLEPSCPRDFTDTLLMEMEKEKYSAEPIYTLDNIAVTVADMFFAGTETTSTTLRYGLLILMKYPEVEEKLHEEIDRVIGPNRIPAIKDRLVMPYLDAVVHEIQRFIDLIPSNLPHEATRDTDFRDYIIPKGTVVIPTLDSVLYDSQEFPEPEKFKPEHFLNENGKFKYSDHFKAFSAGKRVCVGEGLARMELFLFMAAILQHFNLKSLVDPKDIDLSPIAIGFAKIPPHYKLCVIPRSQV

Test [1] has as its target CYP1A2 (Sus scrofa, UniProt F1SJ26). The conditions noted are these: MROD; CI 95% confidence interval. The protocol: (§1) All procedures were done on ice.
(§2) All steroids were dissolved in methanol. […] Kinetic studies were performed under linear conditions.

Test [2] concerns the target CYP2E1 (Sus scrofa, UniProt P79383). The experiment in a line: Enzyme kinetic analysis of PNPH (4-nitrocatechol formation from p-nitrophenol) in porcine hepatic microsomes. The conditions noted are these: CI 95% confidence interval. The protocol:
as §1, §2

Structures are written as SMILES.

Turning to `COc1ccc2nc3ccc(=O)cc-3oc2c1` [7-methoxy-resorufin, 7-methoxyresorufin], the “Vmax, pmol/min/mg (CI)” value in test [1] is given as 7.1 (6.58–7.61) pmol/min/mg.

As for `O=[N+]([O-])c1ccc(O)cc1` [p-nitrophenol], the “Vmax, pmol/min/mg (CI)” value in test [2] is listed as 134.0 (118.3–149.7) pmol/min/mg.
